Assay outcomes from PubChem BioAssay.
Rango dissoc inh = inhibitors of RanGTP-induced Rango-importin beta complex dissociation. Biochemical FRET Rango-importin beta, RanGTP-induced dissociation. O95149+P62826. 340,000 compounds, 0.071% hits. Potency, µM (highest dose often 46.1 µM), without a hit: top-dose activity change, negative = inhibition; also: potency is read from the fitted curve at half-maximal effect; % of control where 0% means no effect; nearly all actives have a fitted effect of over 45% in size
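Compounds preincubate 5 min with complex of recombinant Rango and importin beta in PBS with 1 mM DTT. Ran (0.6 uM) loaded with 2 mM GTP plus 0.2 uM RCC1 starts dissociation; FRET is recorded 45 min later.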
IL2 activator = IL-2 activation; IL-2 activation reporter assay, cell-based qHTS; stimulated with anti-CD3/CD4/CD28 beads; in transgenic mouse T cells; activation, % (series mostly up to about 46 µM); 360,000 compounds, 0.065% hits; AID 652025; in the data active = activation above about 50%; inconclusive = mostly about 30% to 49%; also: 0% is about no effect
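Using fluorescent plate cytometry, EGFP and DsRed are detected in transgenic mouse T cells stimulated 18 h at 37 degrees C with antibody-coated beads after 60 min compound pretreatment.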
AT treatment = potential ataxia-telangiectasia treatment; Potency, µM (top dose mostly 57.5 µM), for the others: at the highest dose activation, usual class: activators; F2112 A-T fibroblasts, KAP-1 phosphorylation AlphaLISA; neocarzinostatin DNA damage 30 min before lysis; 320,000 compounds, 0.19% hits; active = well fitted activation curve with a large enough effect; inconclusive = small, poorly fitted or top-dose-only effect; inactive = no such curve, though single readings can be large or run the other way; also: potency is read from the fitted curve at half-maximal effect; % of control where 0% means no effect; nearly all actives have a fitted effect of over 45% in size
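hTERT-immortalized A-T patient fibroblasts (F2112), 500 cells/well in OPTI-MEM, 1% FBS, got compounds for 60 min, then NCS for 30 min at 37C. Lysates were then assayed for phospho-KAP-1 by AlphaLISA (anti-pKAP1 donor, anti-KAP1 acceptor beads), 6 hr at 25C.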
Rango complex inh = prevents formation of the Rango-importin beta complex | Q14974 | Rango CFP/YFP FRET sensor + importin beta, 45 min | Potency, µM (top dose mostly 92.2 µM), for the others: top-dose inhibition of complex formation | 340,000 compounds, 0.031% hits | AID 540263;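 also: potency is read from the fitted curve at half-maximal effect; 0% = DMSO wells and 100% = buffer wells lacking importin beta; nearly all actives have a fitted effect of over 15% in size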
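FRET biosensor (snurportin 1 IBB flanked by EYFP and cerulean), 50 nM, with compound 5 min, then 0.125 microM importin beta in PBS, 1 mM DTT, 0.02% Tween-20, 0.1% BSA. CFP/YFP ratio read after 45 min at room temperature; pre-read flags interference.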
PKM2 act = PKM2 (human) enzyme activation. AID 1631. purified PKM2, Kinase-Glo ATP luminescence, activation; response scale: 0% is enzyme alone, no compound. Potency, µM (top dose mostly 57.5 µM), for inactives: top-dose activation, most hits filed as activators. 260,000 compounds, 0.34% hits; active = well fitted activation curve with a large enough effect; inconclusive = small, poorly fitted or top-dose-only effect; inactive = no such curve, though single readings can be large or run the other way; also: potency is read from the fitted curve at half-maximal effect; % is scaled to controls: 0 for no effect and ±100 for the full control effect; nearly all actives have a fitted effect of over 55% in size
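Purified hPK-M2 (>95%) run at intermediate activity with 0.1 mM ADP and 0.5 mM PEP in 50 mM imidazole pH 7.2, KCl, MgCl2; 1 h room temperature. ATP formed read by Kinase-Glo luminescence; normalized to uninhibited and no-enzyme controls.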
* hit, by the source's call; ? = inconclusive; · = not tested or not shown. Compounds with a hit are over-represented: about 0.59% of the library has one in this group of screens. Unless noted, calls follow the shape of the full dose curve.

The opening 6 entries (preview)
Fields – Rango dissoc inh | IL2 activator | AT treatment | Rango complex inh | PKM2 act
- CCN(CC)c1ccc(NC2CC(=O)N(CCc3ccc(OC)cc3)C2=O)cc1 (stereo unspecified)
    0.3% | 125.2* | -27.3% | 4.1% | 28.8%
- CCN(CC)c1ccc(/C=C/c2cc(-c3ccccc3)c3ccccc3n2)cc1
    0.2% | 20.4 | 11.2µM* | 3.0% | 4.2%
- Cc1cc(=O)nc2c3ccccc3n(CC(=O)NC(C)c3ccc4c(c3)OCCO4)n12 (stereo unspecified)
    1.9% | -1.8 | -5.5% | -1.9% | ·
- O=C(/C=C/c1ccco1)NCC1COc2ccccc2O1 (stereo unspecified)
    -14.7% | 7.2 | 25.1µM* | ? | 1.3%
- COc1ccc(/C=C/C(=O)NCC2COc3ccccc3O2)c(OC)c1 (stereo unspecified)
    -14.8% | -3.1 | -3.1% | ? | -2.1%
- CCOC(=O)CCc1ccc(NC(=O)/C=C/c2ccc([N+](=O)[O-])o2)cc1
    10.3µM* | -7.6 | · | -5.6% | ·

The listing, from the start:
Fields – Rango dissoc inh | IL2 activator | AT treatment | Rango complex inh | PKM2 act
- CCN(CC)c1ccc(NC2CC(=O)N(CCc3ccc(OC)cc3)C2=O)cc1 (stereo unspecified)
    0.3% | 125.2* | -27.3% | 4.1% | 28.8%
- CCN(CC)c1ccc(/C=C/c2cc(-c3ccccc3)c3ccccc3n2)cc1
    0.2% | 20.4 | 11.2µM* | 3.0% | 4.2%
- Cc1cc(=O)nc2c3ccccc3n(CC(=O)NC(C)c3ccc4c(c3)OCCO4)n12 (stereo unspecified)
    1.9% | -1.8 | -5.5% | -1.9% | ·
- O=C(/C=C/c1ccco1)NCC1COc2ccccc2O1 (stereo unspecified)
    -14.7% | 7.2 | 25.1µM* | ? | 1.3%
- COc1ccc(/C=C/C(=O)NCC2COc3ccccc3O2)c(OC)c1 (stereo unspecified)
    -14.8% | -3.1 | -3.1% | ? | -2.1%
- CCOC(=O)CCc1ccc(NC(=O)/C=C/c2ccc([N+](=O)[O-])o2)cc1
    10.3µM* | -7.6 | · | -5.6% | ·
- CCSc1ccccc1C(=O)Nc1cc(OC)c(OC)c(OC)c1
    -13.4% | -1.9 | 2.6% | 1.6% | 28.2µM*
- COc1cc(NC(=O)c2ccccc2-c2ccccc2)cc(OC)c1OC
    · | · | -0.3% | · | -10.3%
- Cc1cccn(Cc2c(Cl)cccc2Cl)c1=O
    0.3% | -0.2 | · | 1.1% | ·
- Cc1cccn(Cc2c(F)cccc2Cl)c1=O
    -8.1% | 7.0 | 7.3% | -0.7% | 31.6µM*
- Cc1ccc2[nH]c3c(c2c1)CCCC3NCCO (stereo unspecified)
    -7.5% | 0.6 | -5.1% | -2.2% | 3.6%
- CCC(Cc1ccccc1)NS(=O)(=O)c1ccc2c(c1)NC(=O)C(C)S2 (stereo unspecified)
    3.5% | 3.3 | 4.8% | 0.0% | ·
- COc1cccc(NS(=O)(=O)c2cc3[nH]c(=O)c(=O)[nH]c3cc2C)c1
    20.1% | -0.1 | 17.3% | -3.8% | ·
- COc1cccc(NS(=O)(=O)c2cc3c(cc2C)NC(=O)CO3)c1
    -7.0% | -3.2 | 8.8% | 0.7% | 1.78µM*
- COc1ccccc1NS(=O)(=O)c1cc2c(cc1C)NC(=O)CO2
    -20.4% | -2.5 | 3.1% | 4.8% | 7.08µM*
- COc1ccc(C2=Nc3ccccc3N(C(=O)c3ccncc3)C2C(=O)NC(C)(C)C)cc1 (stereo unspecified)
    · | 0.6 | · | · | ·
- O=C1COc2ccc(C(=O)COC(=O)c3ccc(F)cc3Cl)cc2N1
    0.6% | 0.9 | 26.2% | -2.1% | ·
- Cc1ccc2nc3c(cc(C(=O)NC4CCS(=O)(=O)C4)n3Cc3ccccc3)c(=O)n2c1 (stereo unspecified)
    ? | 0.5 | 31.6µM* | ? | ·
- O=C(NC1CCS(=O)(=O)C1)c1cc2c(=O)n3ccccc3nc2n1Cc1ccccc1 (stereo unspecified)
    · | -1.8 | · | · | ·
- O=C1c2ccccc2-c2c1cccc2C(=O)N1CCN(C(=O)c2ccco2)CC1
    5.1% | -0.8 | -2.5% | 1.7% | 15.8µM*
- CCCSc1ccccc1C(=O)N1CCN(C(=O)c2ccco2)CC1
    7.6% | -1.3 | 3.3% | -3.9% | -11.4%
- CNC(=S)N(CCO)Cc1cc2cc3c(cc2[nH]c1=O)OCCO3
    3.7% | -0.2 | 2.82µM* | 0.9% | ·
- O=C(Nc1ccc(F)cc1)N(CCCN1CCOCC1)Cc1cc2cc3c(cc2[nH]c1=O)OCO3
    -1.3% | -4.8 | -0.8% | 0.1% | -1.8%
- CNC(=S)N(CCO)Cc1cc2cc3c(cc2[nH]c1=O)OCO3
    -3.1% | -3.1 | -20.0% | ? | ·
- O=C(Nc1ccc(F)cc1)N(CCCN1CCOCC1)Cc1cc2cc3c(cc2[nH]c1=O)OCCO3
    2.1% | -0.7 | 14.1µM* | 3.2% | 9.3%
- Cc1cn(CC(=O)NCCCn2ccnc2)c(=O)[nH]c1=O
    -3.5% | 0.0 | · | 0.6% | ·
- CCc1nc2c(OCC(=O)N3CCOCC3)cccn2c1N(C)C(=O)COc1ccccc1
    · | -0.3 | · | · | ·
- COc1ccc(CCNC(=O)C(F)(F)F)cc1S(N)(=O)=O
    · | 1.5 | · | · | ·
- COC(=O)c1ccc(S(=O)(=O)N2CCCN(Cc3cccc(Br)c3F)CC2)n1C
    -22.0% | 0.0 | 39.8µM* | 1.0% | 0.3%
- Cc1cccc(OCC(=O)NCC(C)(C)N2CCOCC2)c1
    -5.7% | 0.0 | -0.4% | -2.0% | ·
- Cc1cc(C2=CC(C)(c3cc(C)oc3C)Nc3nc(C(F)(F)F)nn32)c(C)o1 (stereo unspecified)
    · | · | ? | · | 22.4µM*
- CCCn1[nH]cc(SC)c(=O)c1=O
    6.6% | 51.3* | 6.9% | ? | 0.8%
- Cc1ccc(-c2cn3nc(-c4ccccc4)c(-c4ccccc4)nc3n2)cc1
    ? | 0.6 | 28.2µM* | ? | 16.7%
- CCCOc1ccc(NC(=O)CC2C(=O)N(c3ccc(OCC)cc3)C(=S)N2C2CC2)cc1 (stereo unspecified)
    -7.1% | -5.3 | -4.3% | 0.7% | -0.8%
- CCc1ccc(NC(=O)CSc2nc3n[nH]c(C)c3c(=N)n2-c2cccc(OC)c2)cc1
    -8.5% | -2.6 | 1.3% | -0.6% | -7.0%
- COc1cccc(NC(=O)CSc2nc3n[nH]c(C)c3c(=N)n2-c2cccc(OC)c2)c1
    -4.8% | 0.0 | 2.5% | -0.5% | 25.1µM*
- COCCNC(=O)CN1N=C(c2ccc(C)cc2)CCC1=O
    0.4% | -0.3 | -1.5% | -2.3% | ·
- Cc1ccc(-c2nc(C=Nc3ccc(O)cc3)c(O)o2)cc1
    ? | 76.5* | 3.6% | ? | -8.3%
- CCN1CCN(S(=O)(=O)c2cc3c(cc2Cl)NC(=O)CO3)CC1
    -16.2% | -2.2 | -4.9% | -1.6% | 4.4%
- Cc1cc(=O)[nH]c(SCc2cn3ccccc3n2)n1
    -0.3% | 0.6 | -0.2% | 1.1% | 14.1µM*
- O=C1c2ccccc2-c2onc3ccc(NCc4ccco4)c1c23
    ? | 3.2 | 22.4µM* | ? | -18.1%
- CCNc1ccc2noc3c2c1C(=O)c1ccccc1-3
    ? | 9.0 | 3.6% | ? | -9.3%
- O=C(O)/C=C/c1cn(Cc2ccccc2Cl)nc1-c1ccccc1
    -10.6% | -1.7 | 10µM* | 0.1% | 1.8%
- O=C(CSc1ccccn1)N1CCN(C(=O)CSc2ccccn2)CC1
    -4.4% | -0.1 | 1.4% | 65.1µM* | -1.3%
- NS(=O)(=O)c1ccc(NC(=O)CSc2ccccn2)cc1
    10.0% | -2.6 | -1.6% | -0.1% | 28.2µM*
- NS(=O)(=O)c1cccc(NC(=O)CSc2ccccn2)c1
    -3.4% | 1.4 | 3.6% | 0.7% | 0.1%
- NS(=O)(=O)c1cccc(NC(=O)CCCNC(=O)c2ccc(Cl)cc2)c1
    8.0% | -0.6 | -0.8% | 16.4µM* | -2.0%
- Clc1ccc(-c2nnc(-c3cccc4ccccc34)o2)cc1Cl
    -0.2% | -1.4 | 15.8µM* | 2.4% | -6.3%
- Clc1ccc(-c2nnc(-c3ccccc3Cl)o2)cc1
    -5.5% | 0.6 | 9.5% | 0.0% | -1.4%
- CCOC(=O)c1c(-c2ccccc2)cn2ccccc12
    -7.7% | -1.6 | 5.0% | -1.9% | 0.8%
